Sequences of proteins named here, by UniProt entry; tags and fusion partners are left off.
UniProt A0A2K5X4I2, entry or part of it: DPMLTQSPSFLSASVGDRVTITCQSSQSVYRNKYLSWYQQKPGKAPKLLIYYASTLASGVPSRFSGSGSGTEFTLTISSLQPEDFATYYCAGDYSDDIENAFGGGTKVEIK

According to PMC12302720 (The Journal of Biological Chemistry, 2025):

Key:
[1] = target: T1, extracellular domain of cynomolgus CD47 (CyCD47 ECD) (Macaca fascicularis, UniProt A0A2K5X4I2); assay: ELISA; plates coated with 1 ug/ml HuCD47 ECD or CyCD47 ECD in 0.1 M PBS; serially diluted antibodies, 37 °C, 2 h; bound antibody detected with anti-human Fc HRP; conditions: both partners purified
T1 construct: cynomolgus CD47 extracellular domain; source: bought: Acro Biosystems

[2] = target: T2, extracellular domain of human CD47 (HuCD47 ECD) (human, UniProt Q08722); assay: as above; conditions: both partners purified
T2 construct: human CD47 extracellular domain, amino acids Gln1-Pro121; source: bought: Acro Biosystems; not shown: His6, C-terminal, kept

[3] = target: T3, CD47 on the surface of human cells (Homo sapiens, UniProt Q08722); assay: flow cytometry on cells; serially diluted antibodies on tumor cells (CCRF-CEM, Raji), 4 °C, 30 min; FITC anti-human IgG; conditions: one partner purified
T3 construct: human CD47, endogenous on the cell surface; also called CD47 on CCRF-CEM cells; CD47 on Raji cells; source: endogenous, on CCRF-CEM, Raji, HAEC and RPTEC cells and human RBCs

[4] = target: T2, extracellular domain of human CD47 …; assay: BLI; Octet Red96; 5 ug/ml antibody held on anti-human IgG-Fc biosensors; 2-fold dilutions of HuCD47 ECD or CyCD47 ECD in 1 x PBS, 0.1% BSA, 0.02% Tween-20; 1:1 Langmuir global fit; apparent Kd; conditions: both partners purified
[5] = target: T1, extracellular domain of cynomolgus CD47 …; assay: as above; conditions: both partners purified

B1: 1C8, rabbit-derived anti-CD47 monoclonal antibody (rabbit variable regions on human IgG4PE and Igκ) (antibody, V domains shown)
VH: QSVKESEGGLFKPTDTLTLTCTVSGFSLSSYAISWVRQAPGKGLEYIGYISSIGDPYYASWVNGRFTISRTSSTVTLKMTSLTAADTATYFCARSYPGNGDLGRLDIWGQGTLVTVSS
VL: DPMLTQTPSPVSAAVGGTVSISCQSSQSVYRNKYLSWYQQKPGQPPKLLIYYASTLASGVPSRFKGSGSGTQFTLTISDVQCDDAATYYCAGDYSDDIENAFGGGTEVVVK
binding result [1]: binds
binding result [2]: binds
binding result [3]: binds

B2: H3L1, humanized variant of 1C8 (antibody, V domains shown)
VH: QSVKESGGGLFQPGGSLRLSCSVSGFSLSSYAISWVRQAPGKGLEYIGYISSIGDPYYADWVKGRFTISRDSSTVYLQMTSLRAEDTAVYFCARSYPGNGDLGRLDIWGQGTTVTVSS
VL: DIQLTQSPSFLSASVGDRVTITCQSSQSVYRNKYLSWYQQKPGKAPKLLIYYASTLASGVPSRFSGSGSGTEFTLTISSLQPEDFATYYCAGDYSDDIENAFGQGTKVEIK
fold lower binding affinity than 1C8 [4]: 3 fold

B3: Hu1C8, humanized anti-CD47 monoclonal antibody (antibody, V domains shown)
VH: B2 VH
VL: B2 VL with I2P, Q3M, Q104G
binding result [5]: binds

Positions count from the first letter of the chain named.
